Antibody variant affinities, Ab-14 light chain, assay B

Source: Li et al. 2023 (doi:10.1038/s41467-023-39022-2), MIT Lincoln Laboratory and A-Alpha Bio; data file from the FLAb repository.

Antigen: PDVDLGDISGINAS, a 14-residue peptide of the SARS-CoV-2 spike HR2 region.

Parent: Ab-14, a human scFv built as VH, the linker GGGGSGGGGSGGGGS, VL. Only the CDRs of the light chain vary.
VH: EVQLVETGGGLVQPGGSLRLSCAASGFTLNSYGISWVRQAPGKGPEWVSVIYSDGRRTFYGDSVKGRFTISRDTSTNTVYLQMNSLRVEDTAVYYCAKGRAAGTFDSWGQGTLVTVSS
VL: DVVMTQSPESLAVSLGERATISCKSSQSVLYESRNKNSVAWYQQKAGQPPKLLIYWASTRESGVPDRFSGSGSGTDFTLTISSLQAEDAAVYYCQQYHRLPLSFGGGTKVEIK

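The starting antibody came from a phage panning campaign against this peptide. These sequences belong to a second round, designed from the earlier measurements on random variants of the parent. Several design methods are mixed in this list. The assay is AlphaSeq: two haploid yeast populations carry antibody and antigen on their surface. Pairs that bind mate more often; barcode pairs of the diploids are counted by sequencing. The ratio of observed to expected reads was calibrated, replicate by replicate, on BCL2-family standards whose Kd was known from biolayer interferometry. There are six technical replicates.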

The parent's light chain CDRs are KSSQSVLYESRNKNSVA, WASTRES, QQYHRLPLS; each variant's own CDRs replace them letter for letter.
Scale: log10 of Kd in nM, estimated from mating counts; low values are strong binders.
Averages over replicates are reported, and they cover detected replicates only.
A pair that was not seen in any replicate is written "no signal"; this usually means weak binding, but a binder can also be missed.
The range of this assay differs from that of the first round, and the authors advise against merging the two.
The authors averaged sequences with at least three values out of six and counted those with two or fewer as poor binders.
Nonspecific signal, from three strains lacking the peptide, appeared in 4% of pairings of all light chain designs, centred on 2.64 (5% of these signals below 1.59); values are not corrected for it.
The parent sequence was in this pool as ten entries: three were never detected, three once, and four in most replicates, with averages from 0.34 to 2.37.

{"CDR-L1": "KLEQSDLYESRNKNSVA", "CDR-L2": "EASTRES", "CDR-L3": "QQYHRLPLS", "log10 Kd (nM), mean": "-0.04", "replicates with signal": "6/6"}
{"CDR-L1": "KLKQSVLYESRNKNSVA", "CDR-L2": "NASTRES", "CDR-L3": "QQYHRLPLS", "log10 Kd (nM), mean": "-0.13", "replicates with signal": "6/6"}
{"CDR-L1": "KSSQSVLYESRNKNSVA", "CDR-L2": "WASTRED", "CDR-L3": "QQYHRLPLS", "log10 Kd (nM), mean": "1.71", "replicates with signal": "2/6"}
{"CDR-L1": "MISQMFEGLSTSKNPVA", "CDR-L2": "QVSTRLE", "CDR-L3": "QQYHRLPLS", "log10 Kd (nM), mean": "1.58", "replicates with signal": "1/6"}
{"CDR-L1": "KLSQSVLYESRNKNSVA", "CDR-L2": "QASTREV", "CDR-L3": "QQYHRLPLS", "log10 Kd (nM), mean": "-0.13", "replicates with signal": "6/6"}
{"CDR-L1": "KISQSMEYESRNVNSVA", "CDR-L2": "NASTREV", "CDR-L3": "QQYHRLPLS", "log10 Kd (nM), mean": "-0.03", "replicates with signal": "6/6"}
{"CDR-L1": "QLYEMLYELSGKTHSVA", "CDR-L2": "DNSTRGE", "CDR-L3": "QQYFRLPLE", "log10 Kd (nM), mean": "2.72", "replicates with signal": "1/6"}
{"CDR-L1": "KINGVLINNGIDMNAIA", "CDR-L2": "QENISNL", "CDR-L3": "QQYFHLPLS", "log10 Kd (nM), mean": "1.99", "replicates with signal": "6/6"}
{"CDR-L1": "KVEQSVLYEQRNKNSVA", "CDR-L2": "AASTREH", "CDR-L3": "QQYHRLPLS", "log10 Kd (nM), mean": "-0.19", "replicates with signal": "6/6"}
{"CDR-L1": "HMSAVTMLGMRQKNSVA", "CDR-L2": "QMTTREN", "CDR-L3": "QQYDRLPLA", "log10 Kd (nM), mean": "1.37", "replicates with signal": "5/6"}
{"CDR-L1": "KVSEFMRGLMGRKDSIA", "CDR-L2": "DNETRSN", "CDR-L3": "QQYDRLPLS", "log10 Kd (nM), mean": "1.25", "replicates with signal": "6/6"}
{"CDR-L1": "CSSQSVLYESRNKNSVA", "CDR-L2": "WASTRES", "CDR-L3": "QQYHRLPLS", "log10 Kd (nM), mean": "no signal", "replicates with signal": "0/6"}
{"CDR-L1": "MLSYNLHDMGRNKNSVA", "CDR-L2": "EMNKSTT", "CDR-L3": "QDYHRLPLA", "log10 Kd (nM), mean": "0.63", "replicates with signal": "6/6"}
{"CDR-L1": "KFSQSELYGERDKNSVA", "CDR-L2": "NASQRLS", "CDR-L3": "QQYHRLPLS", "log10 Kd (nM), mean": "0.04", "replicates with signal": "6/6"}
{"CDR-L1": "KCSSSVLYESRNKNSVA", "CDR-L2": "WASTRES", "CDR-L3": "QQYHRLPLS", "log10 Kd (nM), mean": "0.98", "replicates with signal": "4/6"}
{"CDR-L1": "MITAGLRGVGRNKNSVA", "CDR-L2": "NAQTRES", "CDR-L3": "QHYNRLPLS", "log10 Kd (nM), mean": "2.09", "replicates with signal": "4/6"}
{"CDR-L1": "KSSFSGLYESRNKNSVA", "CDR-L2": "EASTRES", "CDR-L3": "QQYHRLPLS", "log10 Kd (nM), mean": "-0.08", "replicates with signal": "6/6"}
{"CDR-L1": "KFSQSVLYESRMKNSVA", "CDR-L2": "NAVTRET", "CDR-L3": "QQYHRLPLS", "log10 Kd (nM), mean": "-0.36", "replicates with signal": "6/6"}
{"CDR-L1": "KITATMRFEQKNSNNIA", "CDR-L2": "EVSMRTK", "CDR-L3": "QQYVRLPLA", "log10 Kd (nM), mean": "0.97", "replicates with signal": "6/6"}
{"CDR-L1": "KLSQSQLYESRNKNSVA", "CDR-L2": "HASTRLS", "CDR-L3": "QQYHRLPLS", "log10 Kd (nM), mean": "0.42", "replicates with signal": "6/6"}
{"CDR-L1": "KISMLSENQLKNRNSVA", "CDR-L2": "ELVTRMS", "CDR-L3": "QQYNRLPLS", "log10 Kd (nM), mean": "2.16", "replicates with signal": "6/6"}
{"CDR-L1": "QLQIHDNGYMGMRNNVA", "CDR-L2": "DGGMVRM", "CDR-L3": "QQYARLPLM", "log10 Kd (nM), mean": "0.26", "replicates with signal": "6/6"}
{"CDR-L1": "KLSTSWLYESRMVNAVA", "CDR-L2": "EASTRMD", "CDR-L3": "QQYHRLPLS", "log10 Kd (nM), mean": "0.37", "replicates with signal": "6/6"}
{"CDR-L1": "KHEEGVWYESRNKNSVA", "CDR-L2": "EASTRES", "CDR-L3": "QQYHRLPLS", "log10 Kd (nM), mean": "0.96", "replicates with signal": "6/6"}
{"CDR-L1": "KSSQSVMYESRNSNSVA", "CDR-L2": "WASTRVS", "CDR-L3": "QQYHRLPLS", "log10 Kd (nM), mean": "1.74", "replicates with signal": "6/6"}
{"CDR-L1": "KSSQSVLYESAFKNSVA", "CDR-L2": "WASTRES", "CDR-L3": "QQYHRLPLS", "log10 Kd (nM), mean": "no signal", "replicates with signal": "0/6"}

Excerpt, the final 3 entries:

{"CDR-L1": "KHEEGVWYESRNKNSVA", "CDR-L2": "EASTRES", "CDR-L3": "QQYHRLPLS", "log10 Kd (nM), mean": "0.96", "replicates with signal": "6/6"}
{"CDR-L1": "KSSQSVMYESRNSNSVA", "CDR-L2": "WASTRVS", "CDR-L3": "QQYHRLPLS", "log10 Kd (nM), mean": "1.74", "replicates with signal": "6/6"}
{"CDR-L1": "KSSQSVLYESAFKNSVA", "CDR-L2": "WASTRES", "CDR-L3": "QQYHRLPLS", "log10 Kd (nM), mean": "no signal", "replicates with signal": "0/6"}